This note sets out measurements from patent US20060263427A1, “Quinine formulations” (priority 2005, published 2006).

Where a name gives a salt, the structure may show the parent alone. Read-outs that look alike come from different tables or passages of the source.

Regarding `C=C[C@H]1C[N@@]2CC[C@H]1C[C@H]2[C@H](O)c1ccnc2ccc(OC)cc12` [Quinine Sulfate, cinchonan-9-ol, 6′-methoxy-, (8α,9R)-, sulfate (2:1)], the QTc amounted to 397 ms (Study 1, B: 324 mg capsule, fed, 0 hours); 397 ms (Study 1, B: 324 mg capsule, fed, 2 hours); 396 ms (Study 1, B: 324 mg capsule, fed, 4 hours); 402 ms (Study 1, B: 324 mg capsule, fed, 6 hours); 400 ms (Study 1, B: 324 mg capsule, fed, 12 hours); 400 ms (Study 1, B: 324 mg capsule, fed, 24 hours). Besides, the QTc was 415 ms (Study 2, C: 324 mg capsule, fasting, 2 hours); 414 ms (Study 2, C: 324 mg capsule, fasting, 4 hours); 411 ms (Study 2, C: 324 mg capsule, fasting, 6 hours); 411 ms (Study 2, C: 324 mg capsule, fasting, 12 hours); 409 ms (Study 2, C: 324 mg capsule, fasting, 24 hours); 410 ms (Study 2, D: 648 mg (two capsules), fasting, 0 hours). In addition, the QTc (Study 2, D: 648 mg (two capsules), fasting, 2 hours) was determined as 422 ms; the QTc (Study 2, D: 648 mg (two capsules), fasting, 4 hours) turned out to be 422 ms; the QTc (Study 2, D: 648 mg (two capsules), fasting, 6 hours) came out at 419 ms; the QTc (Study 2, D: 648 mg (two capsules), fasting, 12 hours) was found to be 417 ms; the QTc (Study 2, D: 648 mg (two capsules), fasting, 24 hours) was determined as 412 ms.
